Reference: paper PMC3397393 (Chemical Communications (Cambridge, England), 2012)

By UniProt entry, the sequences of proteins in these tests, tags left out. Residues count along the entry.
UniProt P05106, 27-788: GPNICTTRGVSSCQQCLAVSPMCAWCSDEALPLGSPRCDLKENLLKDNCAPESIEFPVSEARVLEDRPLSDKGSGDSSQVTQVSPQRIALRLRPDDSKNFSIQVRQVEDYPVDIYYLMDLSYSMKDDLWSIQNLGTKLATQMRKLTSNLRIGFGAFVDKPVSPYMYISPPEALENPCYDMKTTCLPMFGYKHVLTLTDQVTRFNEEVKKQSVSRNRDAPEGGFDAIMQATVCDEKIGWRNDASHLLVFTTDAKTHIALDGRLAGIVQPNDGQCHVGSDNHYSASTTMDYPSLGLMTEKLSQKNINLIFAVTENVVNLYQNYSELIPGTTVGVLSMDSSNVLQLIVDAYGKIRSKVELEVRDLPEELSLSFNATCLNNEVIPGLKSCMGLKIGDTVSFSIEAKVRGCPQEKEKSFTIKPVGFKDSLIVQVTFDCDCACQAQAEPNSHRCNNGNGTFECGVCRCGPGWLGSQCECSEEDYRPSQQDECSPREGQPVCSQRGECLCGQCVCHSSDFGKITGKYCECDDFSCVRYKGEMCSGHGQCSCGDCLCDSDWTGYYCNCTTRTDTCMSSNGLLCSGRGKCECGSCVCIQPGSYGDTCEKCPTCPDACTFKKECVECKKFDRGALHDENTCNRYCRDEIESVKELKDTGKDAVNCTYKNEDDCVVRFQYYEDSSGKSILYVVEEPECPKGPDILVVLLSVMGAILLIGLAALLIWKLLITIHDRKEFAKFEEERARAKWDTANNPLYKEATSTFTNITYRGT
UniProt P06756, 891-1048 partner limits assumed: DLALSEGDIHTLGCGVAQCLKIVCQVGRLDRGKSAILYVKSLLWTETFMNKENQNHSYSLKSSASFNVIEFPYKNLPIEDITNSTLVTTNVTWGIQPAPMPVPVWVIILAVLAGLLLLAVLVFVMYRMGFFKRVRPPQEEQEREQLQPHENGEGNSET
UniProt P06756, 31-889 limits assumed: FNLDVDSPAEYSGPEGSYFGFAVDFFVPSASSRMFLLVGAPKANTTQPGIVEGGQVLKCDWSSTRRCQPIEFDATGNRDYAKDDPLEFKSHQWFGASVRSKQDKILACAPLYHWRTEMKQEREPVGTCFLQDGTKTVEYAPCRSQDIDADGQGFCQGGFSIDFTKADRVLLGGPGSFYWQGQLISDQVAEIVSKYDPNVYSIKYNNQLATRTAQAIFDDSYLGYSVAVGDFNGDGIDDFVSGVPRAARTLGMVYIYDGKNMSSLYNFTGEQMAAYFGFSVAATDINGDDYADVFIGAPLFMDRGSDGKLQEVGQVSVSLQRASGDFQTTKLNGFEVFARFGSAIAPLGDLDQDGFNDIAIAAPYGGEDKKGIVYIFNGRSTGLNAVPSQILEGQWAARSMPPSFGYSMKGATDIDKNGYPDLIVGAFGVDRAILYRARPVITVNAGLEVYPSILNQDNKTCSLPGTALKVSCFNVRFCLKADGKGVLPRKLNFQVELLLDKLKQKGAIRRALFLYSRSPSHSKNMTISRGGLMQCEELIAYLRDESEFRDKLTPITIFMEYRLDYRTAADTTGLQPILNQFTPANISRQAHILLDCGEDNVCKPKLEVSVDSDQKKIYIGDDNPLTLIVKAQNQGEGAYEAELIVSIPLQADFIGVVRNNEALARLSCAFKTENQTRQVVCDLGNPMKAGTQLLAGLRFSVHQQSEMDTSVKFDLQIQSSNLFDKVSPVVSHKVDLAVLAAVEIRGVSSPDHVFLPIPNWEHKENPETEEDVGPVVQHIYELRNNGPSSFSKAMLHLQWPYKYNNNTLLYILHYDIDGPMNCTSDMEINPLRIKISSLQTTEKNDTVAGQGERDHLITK

Target: integrin αvβ3 (U87MG human glioblastoma cells) (Homo sapiens, UniProt P05106+P06756)
Assay: Flow cytometry analysis of FITC conjugates in U87MG cells
Assay type: cell-based
Conditions: 5 μg/mL; blocking with 2 μM of unconjugated c(RGDyK)

FITC-c(RGDyK) (head to tail)
uptake in U87MG cells after blocking the receptor: significantly reduced
